These results are taken from ChEMBL document CHEMBL1124010, “Synthesis and pharmacology of trans-4-n-propyl-3,4,4a,10b-tetrahydro-2H,5H-1-benzopyrano[4,3-b ]-1,4-oxazin-7- and -9-ols: the significance of nitrogen pKa values for central dopamine receptor activation” (J Med Chem, 1988).

Sequences of proteins named here, by UniProt entry; tags and fusion partners are left off.
UniProt P61169, whole entry: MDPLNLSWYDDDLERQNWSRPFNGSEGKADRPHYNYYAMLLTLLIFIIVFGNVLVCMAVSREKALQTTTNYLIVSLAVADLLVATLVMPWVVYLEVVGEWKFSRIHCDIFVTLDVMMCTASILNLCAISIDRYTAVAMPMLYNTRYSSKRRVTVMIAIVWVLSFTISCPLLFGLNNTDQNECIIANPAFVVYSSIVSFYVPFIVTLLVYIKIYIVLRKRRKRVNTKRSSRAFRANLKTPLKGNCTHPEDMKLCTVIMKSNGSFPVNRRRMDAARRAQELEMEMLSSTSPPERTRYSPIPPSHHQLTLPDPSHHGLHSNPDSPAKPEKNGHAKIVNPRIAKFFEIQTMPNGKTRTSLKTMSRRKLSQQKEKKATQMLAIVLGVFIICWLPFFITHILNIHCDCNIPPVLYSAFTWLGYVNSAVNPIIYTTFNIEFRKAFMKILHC

The target of this assay is D(2) dopamine receptor (Rattus norvegicus, UniProt P61169). Nature of the assay: Potency to displace the specific in vitro binding of [3H]DP-5,6-ADTN to rat striatal membrane. Also noted: species or system Striatum.

As usually defined, the IC50 is the concentration that gives 50% inhibition. Low values mean inhibition by little substance, high ones a need for much substance. The molecule `CCCN(CCC)C1CCc2c(O)cccc2C1` (stereo unspecified) [5-OH-DPAT] yielded an IC50 of 4 nM.
